The experiment addresses Nivolumab. Nature of the experiment: SPR (Biacore T200), Nivolumab immobilised on CM5 chip, 1 µM peptide injected. For orientation: Surface plasmon resonance follows binding to a sensor surface in real time, without labels.
Substance MVF-PD-1 (32-50) (peptide) showed an SPR response of 20 RU.

MVF-PD-1 (73-90) (peptide) displayed an SPR response of 1000 RU.

For the substance MVF-PD-1 (92-110) (peptide), the SPR response worked out at 970 RU.

Source of the values: patent US20200197498A1.
